Data: ChEMBL document CHEMBL1149357, “Propionylpiperazines as human melanocortin-4 receptor ligands” (Bioorg Med Chem Lett, 2006)

Tests used:
[1] = Ratio of drug level in brain against plasma in mouse at 5 mg/kg, iv after 1 hr; type: ADME, organism-based; design: dose 5 mg/kg, route intravenous; conditions: read-out: BPR
[2] = Ratio of drug level in brain against plasma in mouse at 5 mg/kg, iv after 4 hrs; type: ADME, organism-based; design: dose 5 mg/kg, route intravenous; conditions: read-out: BPR

Row | Kp at 1 h [1] | Kp at 4 h [2] | SMILES
1 | 2.3 | 1.9 | COc1cc(Cl)ccc1CC(C)C(=O)N1CCN(c2ccc(C(F)(F)F)cc2[C@@H](N)CC(C)C)CC1 (some centres undefined)
2 | 2.9 | 1.4 | Cc1ccc(N2CCN(C(=O)[C@H](C)Cc3ccc(Cl)cc3)CC2)c([C@@H](N)CC(C)C)c1
